Test results published in BindingDB's records for doi:10.1016/j.bmcl.2007.04.068 (Wyeth Research, 2007).

Target: Estrogen receptor alpha (Homo sapiens) (UniProt P03372)
Test: Inhibition of human ERalpha

IC50: 4.3 nM
SMILES: Oc1ccc(-c2cc(Br)c3cc(O)ccc3n2)cc1 [4-Bromo-2-(4-hydroxy-phenyl)-quinolin-6-ol]
